According to US4866044A, “Solubilized composition of poorly-soluble pharmaceutical product” (Takeda Chemical Industries, Ltd., priority 1985, dated 1989):

Settings: pH 6

Question: With N--(2-mercaptopropionyl)-glycine as the substance, how does the redissolubility read?
Answer: O (key: O: dissolved within one minute; Δ: dissolved within one to three minutes)

Question: For thiourea, which redissolubility is on record?
Answer: O (key: O: dissolved within one minute; Δ: dissolved within one to three minutes)

Question: With β-alanine as the substance, how does the redissolubility read?
Answer: O (key: O: dissolved within one minute; Δ: dissolved within one to three minutes)
